Where two headings read alike, the source gives them in different places.
Tested on: human coronavirus (HCoV) 229E

Row | SMILES | SI (CC50/EC50) | SI (CC50/EC50) (MRC-5 cells, HCoV 229E)
1 | CCC(CC)COC(=O)[C@H](C)N[P@](=O)(OC[C@H]1O[C@@](C#N)(c2ccc3c(N)ncnn23)[C@H](O)[C@@H]1O)Oc1ccccc1 [Remdesivir, reference compound] | 1490.62 | –
2 | C/C=C/C[C@@H](C)[C@@H](O)[C@H]1C(=O)N[C@@H](CC)C(=O)N(C)[C@H](SCCN(C)C)C(=O)N(C)[C@@H](CC(C)(C)O)C(=O)N[C@@H](C(C)C)C(=O)N(C)[C@@H](CC(C)C)C(=O)N[C@@H](C)C(=O)N[C@H](C)C(=O)N(C)[C@@H](CC(C)C)C(=O)N(C)[C@@H](CC(C)C)C(=O)N(C)[C@@H](C(C)C)C(=O)N1C [WS-635] | – | 9.07

From patent publication US20220296676A1 (priority 2020, published 2022)
